Key:
[1] = target: T1, cynomolgus monkey Fc gamma receptor CD16 (cynomolgus monkey, UniProt Q8SPW2 17-208); test: SPR (Carterra), monovalent format
T1 construct: also called CD16 (cynomolgus)

[2] = target: T2, cynomolgus monkey Fc gamma receptor CD32a (cynomolgus monkey); test: SPR (Carterra), monovalent format
T2 construct: also called CD32a (cynomolgus)

[3] = target: T3, cynomolgus monkey Fc gamma receptor CD32b (cynomolgus monkey); test: SPR (Carterra), monovalent format
T3 construct: also called CD32b (cynomolgus)

[4] = target: T1, cynomolgus monkey Fc gamma receptor CD16; test: BLI (Octet), cynomolgus FcγR on sensor
[5] = target: T2, cynomolgus monkey Fc gamma receptor …; test: BLI (Octet), cynomolgus FcγR on sensor
[6] = target: T3, cynomolgus monkey Fc gamma receptor …; test: BLI (Octet), cynomolgus FcγR on sensor
[7] = target: T4, recombinant human Fc gamma RIIIa (CD16a) 158F (human, UniProt P08637 17-208); test: BLI (Octet), FcγR on sensor, bivalent format
T4 construct: also called FcRγIIIa

[8] = target: T5, recombinant human Fc gamma RIIIa (CD16a) 158V (human, UniProt P08637 17-208); test: BLI (Octet), FcγR on sensor, bivalent format
T5 construct: also called FcRγIIIa; FcgRIIIa 158 V

[9] = target: T6, recombinant human Fc gamma RIIIb (CD16b) (human, UniProt O75015 17-200); test: BLI (Octet), FcγR on sensor, bivalent format
T6 construct: also called FcRγIIIb

[10] = target: T7, recombinant human Fc gamma RIIa (CD32a) 131H (human, UniProt P12318 36-218); test: BLI (Octet), FcγR on sensor, bivalent format
T7 construct: also called FcRγIIa
T7 sequence (looked up): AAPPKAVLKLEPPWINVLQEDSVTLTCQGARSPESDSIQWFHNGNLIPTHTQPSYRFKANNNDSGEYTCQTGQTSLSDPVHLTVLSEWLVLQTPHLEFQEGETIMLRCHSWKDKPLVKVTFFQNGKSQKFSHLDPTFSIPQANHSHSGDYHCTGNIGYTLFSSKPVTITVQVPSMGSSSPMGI

[11] = target: T8, recombinant human Fc gamma RIIa (CD32a) 131R (human, UniProt P12318 36-218); test: BLI (Octet), FcγR on sensor, bivalent format
T8 construct: also called Fc gamma RIIa (CD32) (Arg167)
T8 sequence (looked up): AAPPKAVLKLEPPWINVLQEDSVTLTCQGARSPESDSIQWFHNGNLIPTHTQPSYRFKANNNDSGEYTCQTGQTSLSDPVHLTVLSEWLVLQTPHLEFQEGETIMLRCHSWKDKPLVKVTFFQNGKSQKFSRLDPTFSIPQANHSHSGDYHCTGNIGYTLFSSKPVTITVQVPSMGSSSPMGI

[12] = target: T9, recombinant human Fc gamma RIIb/c (CD32b/c) (human, UniProt P31994 46-217); test: BLI (Octet), FcγR on sensor, bivalent format
T9 construct: also called FcRγIIb; FcgRIIb/c
T9 sequence (looked up): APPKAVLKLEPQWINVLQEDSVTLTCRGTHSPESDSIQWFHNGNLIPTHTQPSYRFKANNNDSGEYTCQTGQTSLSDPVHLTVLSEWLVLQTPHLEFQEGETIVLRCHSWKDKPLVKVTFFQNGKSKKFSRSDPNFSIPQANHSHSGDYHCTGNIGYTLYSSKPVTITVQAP

[13] = target: T10, recombinant human Fc gamma RI (CD64) (human, UniProt P12314 16-288); test: BLI (Octet), FcγR on sensor, bivalent format
T10 construct: also called FcRγI; FcgRI

human CD19 on cells = target: T11, human CD19 on cells (human, UniProt P15391 20-556); test: flow cytometry on PBMC B cells, anti-human Fcγ-PE
T11 construct: also called cell surface CD19
T11 sequence (looked up): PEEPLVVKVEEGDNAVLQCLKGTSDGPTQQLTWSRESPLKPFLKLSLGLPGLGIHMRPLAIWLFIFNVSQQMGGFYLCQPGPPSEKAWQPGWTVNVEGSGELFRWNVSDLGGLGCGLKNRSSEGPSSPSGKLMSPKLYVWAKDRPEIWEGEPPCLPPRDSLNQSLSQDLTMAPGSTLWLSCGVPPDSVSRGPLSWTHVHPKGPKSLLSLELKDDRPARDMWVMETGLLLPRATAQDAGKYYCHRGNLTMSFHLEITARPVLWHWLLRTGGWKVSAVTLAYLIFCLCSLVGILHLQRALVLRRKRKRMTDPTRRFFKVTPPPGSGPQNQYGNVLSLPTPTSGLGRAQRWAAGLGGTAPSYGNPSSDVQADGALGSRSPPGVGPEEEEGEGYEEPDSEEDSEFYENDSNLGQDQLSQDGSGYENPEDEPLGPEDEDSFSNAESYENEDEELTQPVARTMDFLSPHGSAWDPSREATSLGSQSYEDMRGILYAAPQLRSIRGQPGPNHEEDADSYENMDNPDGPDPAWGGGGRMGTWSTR

[14] = target: T12, cynomolgus monkey CD19 on cells (cynomolgus monkey, UniProt A0A2K5W8L9 20-557); test: flow cytometry on PBMC B cells, anti-human Fcγ-PE
T12 sequence: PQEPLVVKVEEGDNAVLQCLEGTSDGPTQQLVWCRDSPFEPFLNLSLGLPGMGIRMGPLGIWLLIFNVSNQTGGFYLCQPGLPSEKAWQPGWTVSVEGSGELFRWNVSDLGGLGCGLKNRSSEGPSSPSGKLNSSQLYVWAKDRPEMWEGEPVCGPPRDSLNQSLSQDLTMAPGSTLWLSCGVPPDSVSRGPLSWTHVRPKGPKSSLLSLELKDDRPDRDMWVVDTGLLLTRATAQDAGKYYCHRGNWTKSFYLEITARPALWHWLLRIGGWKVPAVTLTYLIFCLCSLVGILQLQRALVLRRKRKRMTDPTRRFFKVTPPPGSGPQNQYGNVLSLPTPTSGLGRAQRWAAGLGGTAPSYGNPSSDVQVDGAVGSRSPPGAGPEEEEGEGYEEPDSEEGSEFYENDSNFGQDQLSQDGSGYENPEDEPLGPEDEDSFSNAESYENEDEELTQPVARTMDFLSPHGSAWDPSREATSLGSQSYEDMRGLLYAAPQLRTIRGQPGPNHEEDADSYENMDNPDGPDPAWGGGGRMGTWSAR

B1: Tafasitamab-cxix (research grade biosimilar) (antibody, human IgG1, kappa)
heavy: EVQLVESGGGLVKPGGSLKLSCAASGYTFTSYVMHWVRQAPGKGLEWIGYINPYNDGTKYNEKFQGRVTISSDKSISTAYMELSSLRSEDTAMYYCARGTYYYGTRVFDYWGQGTLVTVSSASTKGPSVFPLAPSSKSTSGGTAALGCLVKDYFPEPVTVSWNSGALTSGVHTFPAVLQSSGLYSLSSVVTVPSSSLGTQTYICNVNHKPSNTKVDKKVEPKSCDKTHTCPPCPAPELLGGPDVFLFPPKPKDTLMISRTPEVTCVVVDVSHEDPEVQFNWYVDGVEVHNAKTKPREEQFNSTFRVVSVLTVVHQDWLNGKEYKCKVSNKALPAPEEKTISKTKGQPREPQVYTLPPSREEMTKNQVSLTCLVKGFYPSDIAVEWESNGQPENNYKTTPPMLDSDGSFFLYSKLTVDKSRWQQGNVFSCSVMHEALHNHYTQKSLSLSPG
light: not shown
notes: also called Tafasitamab-S239D/1332E; Protein ID 22-02
[1]
  Fold (KD of MabThera / KD): 96.6 fold
[2]
  Fold (KD of MabThera / KD): 41.1 fold
[3]
  Fold (KD of MabThera / KD): 27.5 fold
[4]
  Fold (KD of rituximab / KD): 8.6 fold
[5]
  Fold (KD of rituximab / KD): 32.8 fold
[6]
  Fold (KD of rituximab / KD): 23.9 fold
[7]
  Fold (KD of rituximab / KD): 12.7 fold
[8]
  Fold (KD of rituximab / KD): 6.7 fold
[9]
  Fold (KD of rituximab / KD): 23.3 fold
[10]
  Fold (KD of rituximab / KD): 7.5 fold
[11]
  Fold (KD of rituximab / KD): 11.5 fold
[12]
  Fold (KD of rituximab / KD): 28.5 fold
[13]
  Fold (KD of rituximab / KD): 2 fold
Human CD19 on cells
  Emax: 55000 gMFI
[14]
  Emax: 32000 gMFI
